This is an account of results in article doi:10.1101/2022.03.03.481873v1.

In this series the test system is O=C(O)CCC(=O)C1=CC=C[C@@H](O)[C@@H]1C(=O)O. As to the kind of experiment: purified protein. The conditions noted are these: 50 mM Tris pH 8.0, 0.1 mM MnCl2, 25 °C, Amycolatopsis numbering.

In the case of “EfNSAR/OSBS (Enterococcus faecalis V583; R266Q)”, the Km is 19 ± 2 µM and the kcat is 0.08 ± 0.002 s⁻¹.
